## Yeast mating assay 2: variants of the scFv Ab-91

Values reported by Engelhart et al. 2022, doi:10.1038/s41597-022-01779-4 (FLAb copy).

All variants were tested on one target, the spike HR2 peptide PDVDLGDISGINAS (SARS-CoV-2).

Ab-91 is the parent antibody, in scFv form: VL, then three GGGGS repeats, then VH. The light chain is unchanged in all variants.
VL: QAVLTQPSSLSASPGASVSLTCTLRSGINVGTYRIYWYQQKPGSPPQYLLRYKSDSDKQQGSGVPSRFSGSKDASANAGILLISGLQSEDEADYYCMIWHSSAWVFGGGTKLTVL
VH: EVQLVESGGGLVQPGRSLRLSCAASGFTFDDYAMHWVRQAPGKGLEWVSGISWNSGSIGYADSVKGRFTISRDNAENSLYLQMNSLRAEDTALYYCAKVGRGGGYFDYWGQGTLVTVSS

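Library AAYL51 holds single substitutions and randomly drawn double and triple substitutions in the CDRs. In AlphaSeq, yeast of one mating type display the scFv and yeast of the other type display the target. Mating (16 h, 30 °C) was followed by selection of diploids and sequencing of their barcodes. Read counts were normalised to the haploid input and turned into Kd by a linear fit to BCL2-family pairs of known affinity, for each replicate. There are three technical replicates.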

The parent's heavy chain CDRs are GFTFDDYAMH, GISWNSGSIGYADSVK, VGRGGGYFDY; each variant's own CDRs replace them letter for letter. All variants listed here change F29 of the VH, counted from its first residue. Values are apparent Kd, the geometric mean of the replicates that gave a signal; lower means stronger binding. An entry "no signal" has no value in the source: the pair was not observed among the diploids in any replicate. This suggests poor binding but is not conclusive. Three control strains display no target. For library AAYL51, 21% of the pairings with them gave a signal, with a median of 34 µM and one signal in twenty below 1.8 µM, so weak values seen in few replicates may be background. Also given: how often the same scFv was detected with the empty control strains.

CDR-H1	CDR-H2	CDR-H3	Kd	replicates with signal	empty controls
GFTVDDYAMH	GISWNSGSIGDADSVK	VVRGGGYFDY	120 µM	1/3	0/9
GFTNDDYAMH	GISWNSGSGGYADSVK	VGRGGGYFGY	17 µM	1/3	4/9
GFTEDDYAMH	GISWNSGSIGYADSVK	AGRGGGYWDY	no signal	0/3	1/9
GFTQDDEAMH	GISWNSGSIGYADSVK	VGRGGWYFDY	no signal	0/3	1/9
GFTWDDYAMH	GIFWNSGSIYYADSVK	VGRGGGYFDY	no signal	0/3	4/9
GFTGDDYHMA	GISWNSGSIGYADSVK	VGRGGGYFDY	8.9 µM	1/3	1/9
GFTTDDYAMH	GISWNSGSIGYADSVK	VGRGGGYFGL	260 nM	3/3	1/9
GFTCDDYAMH	GISWNSGSIGYADCVK	VGRGGGWFDY	no signal	0/3	1/9
GFTNDDYAMH	GISWNSGPIGYADSVK	VGRGGYYFDY	110 µM	2/3	3/9
GFTPDDYAMH	GISWNSGSIGYRDSVK	VTRGGGYFDY	17 µM	3/3	3/9
GFTQDDYAMH	VISWNSGSIGYADSVK	VGRGGGYGDY	no signal	0/3	0/9
GFTDDDYAMH	GISWNSGSIGYADSVK	VGRGGGYRDK	no signal	0/3	0/9
GFTTDDYAMH	GISWNSGSIGYADSVK	VGRYGGYFDF	17 nM	3/3	5/9
GFTPDDYAMH	GISWNSPSIGYADSVK	VGRGKGYFDY	7.5 µM	2/3	2/9
GFTLDDYAMH	GISWNSGSIGHADIVK	VGRGGGYFDY	11 µM	2/3	0/9
GFTQHDYAMH	GISWNSGSIGYADSVK	VGRGGGYFRY	33 µM	1/3	2/9
GFTCDFYAMH	GISWNSGSIGYADSVK	VGMGGGYFDY	no signal	0/3	0/9
GFTIDDSAMH	GISWNSGSIGYADSVK	VGMGGGYFDY	99 nM	3/3	1/9
GCTRDDYAMH	GISWNSGSIGYADSVK	VGRWGGYFDY	2.0 µM	1/3	0/9
GFTLDDYAVH	GISWNSGSIGYSDSVK	VGRGGGYFDY	110 µM	3/3	2/9
GFTADDYAMY	GISWESGSIGYADSVK	VGRGGGYFDY	47 µM	1/3	1/9
GFTGDDYAMH	GISWNNGSIGYADSVK	VGRGFGYFDY	220 µM	2/3	1/9
GFTVDDYAMH	GISWNSGSIGVADSVK	VGRGGFYFDY	11 µM	2/3	1/9
GFTLDSYAMH	GISWNSGSIGYADSVK	VGRGGGRFDY	no signal	0/3	1/9
FFTSDDYAMH	GISWNSGSIGGADSVK	VGRGGGYFDY	99 µM	2/3	5/9
GFTHDDYAMH	GISWNSGSIGYADSVF	VGRGGGYFDY	7.9 nM	3/3	4/9
GFTKLCYAMH	GISWNSGSIGYADSVK	VGRGGGYFDY	61 µM	1/3	0/9
GFTKDDYAMH	GISWNSGSIGYADSVK	VGRGGGDLDY	no signal	0/3	0/9
GFTHDDYAMH	EISWNSGSIGYADSVK	VGRGGGYPDY	no signal	0/3	6/9
GFTPDDYAMH	GISSNIGSIGYADSVK	VGRGGGYFDY	33 µM	3/3	4/9
GFTHDDYAMH	GISWNSGSIGYADSVK	VGRGGHYFDY	250 µM	2/3	2/9
GFTADDYMMH	GISWNSGSIGYADSVK	VGRGGGYRDY	130 µM	1/3	4/9
GFTEDDYAMH	GISWNSGSIGYADSVK	VGCGGGYFMY	no signal	0/3	1/9
GFTGDDYAMH	GISWNSGSIGYADSGK	VGRGGGYFIY	no signal	0/3	0/9
GFTSDDYAMH	GISWNSGSIGAADMVK	VGRGGGYFDY	2.8 µM	1/3	2/9
GFTKDDYAMH	GISWNSGSIGYADSVK	VSRGGGYTDY	no signal	0/3	0/9
GFTQDDYAMH	GISYNSGSIGYADSVK	CGRGGGYFDY	no signal	0/3	1/9
GFTTDDYAMW	GISWNSGSIGYRDSVK	VGRGGGYFDY	no signal	0/3	4/9
GFTNDDYAMH	GISWNSGSIGYADSVK	VGRGGVYFDN	43 µM	2/3	5/9
GFTKDDWAMH	GISWNSGSIGYADSYK	VGRGGGYFDY	48 µM	1/3	0/9
GFTVDDYAMH	GISWNSGSIGYADSVK	VGAGGGYFDI	45 nM	3/3	2/9
GFTDDDYAMH	GGSWNSGSIGYADSVK	VGRGGHYFDY	48 µM	2/3	5/9
GFTADDYAMH	GIDWNSGSIGYHDSVK	VGRGGGYFDY	no signal	0/3	0/9
GFTHYDYAMH	GISWNSGSIGYADSVK	VRRGGGYFDY	no signal	0/3	3/9
GFVSDDYHMH	GISWNSGSIGYADSVK	VGRGGGYFDY	160 µM	2/3	8/9
GFTCDDYAMH	GTSWNSGSIGYADSVK	VGRGGTYFDY	no signal	0/3	0/9
GFTWDDYAMH	GISWNSGSIGYADSVK	VGRGGGYFDY	22 µM	1/3	2/9
GFTVDDYAMH	GISWNSGSRGYVDSVK	VGRGGGYFDY	no signal	0/3	1/9
GFTHDDYAMH	GISWNSGSIGYADSVG	VGRGGGYFDY	17 µM	1/3	0/9
GFTPDDYAMH	GISWNSKSIGYADSVK	VGRGGGYFDY	no signal	0/3	3/9
GFTDDDYAMH	GISWNSGSIGYANSVK	NGRGGGYFDY	no signal	0/3	1/9
GFTVDDYAMH	GISWNSGSQGYADSVK	VFRGGGYFDY	200 µM	1/3	0/9
GFTEDDYAMH	GISWNSGSIGYAQSVQ	VGRGGGYFDY	710 µM	1/3	0/9
GFTDDDYKMH	GDSWNSGSIGYADSVK	VGRGGGYFDY	no signal	0/3	0/9
GFEGDDYAMH	GISWNSGSYGYADSVK	VGRGGGYFDY	63 nM	3/3	1/9
GVTEDDYAMH	GISWNSGSIGYADSVK	VGRGFGYFDY	1.2 µM	1/3	0/9
DFYRDDYAMH	GISWNSGSIGYADSVK	VGRGGGYFDY	16 nM	3/3	1/9

The opening 4 entries, copied out:

CDR-H1	CDR-H2	CDR-H3	Kd	replicates with signal	empty controls
GFTVDDYAMH	GISWNSGSIGDADSVK	VVRGGGYFDY	120 µM	1/3	0/9
GFTNDDYAMH	GISWNSGSGGYADSVK	VGRGGGYFGY	17 µM	1/3	4/9
GFTEDDYAMH	GISWNSGSIGYADSVK	AGRGGGYWDY	no signal	0/3	1/9
GFTQDDEAMH	GISWNSGSIGYADSVK	VGRGGWYFDY	no signal	0/3	1/9